Laboratory results taken from paper PMC8671752, “Effects of ex vivo Extracorporeal Membrane Oxygenation Circuits on Sequestration of Antimicrobial Agents” (Frontiers in Medicine, 2021).

Assays:
[1] = Drug recovery in the Sorin ECMO circuit; details: phosphorylcholine-coated circuit, whole human blood, 37°C, HPLC-MS/MS, % of 2 min concentration, single measurement
[2] = Control group: spontaneous drug degradation in whole blood at 37°C; details: control of Sorin experiment, whole human blood, no circuit, HPLC-MS/MS, % of 2 min concentration, single measurement; for Drug recovery, Control-12 h (Sorin experiment): water bath 37°C 12 h

SMILES	Drug recovery, Sorin circuit, 3 h ([1]; 3 h)	Drug recovery, Control-3 h (Sorin experiment) ([2]; water bath 37°C 3 h)	Drug recovery, Control-12 h (Sorin experiment) [2]	Drug recovery, Sorin circuit, 5 min ([1]; 5 min)	Drug recovery, Sorin circuit, 15 min ([1]; 15 min)	Drug recovery, Sorin circuit, 30 min ([1]; 30 min)	Drug recovery, Sorin circuit, 1 h ([1]; 1 h)
CCN1CCN(C(=O)N[C@@H](C(=O)N[C@@H]2C(=O)N3C(C(=O)O)=C(CSc4nnnn4C)CS[C@H]23)c2ccc(O)cc2)C(=O)C1=O [Cefoperazone, cefoperazone]	103%	103%	101%				
C[C@@H](O)[C@H]1C(=O)N2C(C(=O)O)=C(S[C@@H]3CN[C@H](C(=O)N(C)C)C3)[C@H](C)[C@H]12 [Meropenem, meropenem]			106%	104%	104%	104%	103%
